# Measured affinities in a library of Ab-91 heavy chain variants

Source: Engelhart et al. 2022 (doi:10.1038/s41597-022-01779-4), MIT Lincoln Laboratory and A-Alpha Bio; data file from the FLAb repository.

Target peptide (SARS-CoV-2 spike, HR2 region): PDVDLGDISGINAS

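In library AAYL51, one, two or three CDR residues were substituted; doubles and triples were drawn at random. The scFvs were displayed on barcoded MATa yeast, the peptide on MATalpha yeast. Pairs that bind mate more often; barcode pairs of the diploids are counted by sequencing. A regression on co-assayed BCL2-family reference pairs converts the normalised counts of each replicate to an apparent Kd. There are three technical replicates.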

Parent: Ab-91, a human scFv built as VL, a 15-residue (Gly4Ser)3 linker, VH. Only the CDRs of the heavy chain vary.
VL: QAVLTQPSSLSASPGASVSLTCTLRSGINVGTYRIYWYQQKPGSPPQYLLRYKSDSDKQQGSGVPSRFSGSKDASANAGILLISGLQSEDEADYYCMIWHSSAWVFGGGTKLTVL
VH: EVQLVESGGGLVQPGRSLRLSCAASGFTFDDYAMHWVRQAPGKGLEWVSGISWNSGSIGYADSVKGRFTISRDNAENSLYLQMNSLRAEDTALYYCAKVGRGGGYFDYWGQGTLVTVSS

Positions count from residue 1 of the parent VH; D31H puts H in place of D. Numbers give log10(Kd / nM), so 0 is 1 nM and 3 is 1 µM. Smaller is tighter. Replicates are averaged; those with no signal do not enter the mean. An entry "nd" has no value in the source: the pair was not observed among the diploids in that replicate. This suggests poor binding but is not conclusive. Background: pairings of library AAYL51 with three empty control strains gave a value in 21% of cases (median 4.54, 5th percentile 3.26). Values in that range, when seen in few replicates, are hard to tell from nonspecific mating. The control count says in how many pairings with the empty strains this scFv gave a signal, with their mean in brackets.

changes	log10 Kd, replicates	mean log10 Kd (nM)	signal with controls
D31H G59F Y105K	4.66 / 4.41 / nd	4.54	7/9 (5.21)
G103S G104Y Y105V	nd / nd / nd	nd	0/9
Y60M R101G D107Q	3.95 / 6.62 / 5.58	5.38	4/9 (4.73)
A61G R101W	2.11 / 2.25 / 2.08	2.15	5/9 (4.94)
F29A S52K S57D	nd / 4.57 / nd	4.57	2/9 (4.52)
A33Q S52C Y60G	nd / 3.97 / nd	3.97	2/9 (4.00)
F29T N54F V64L	nd / 4.51 / nd	4.51	2/9 (4.88)
F29A D62A G102R	nd / 5.53 / 5.23	5.38	5/9 (4.39)
S63C G104W D107W	nd / nd / nd	nd	0/9
H35W V64M D107T	4.72 / nd / nd	4.72	0/9
D62C S63R	4.87 / 4.74 / nd	4.80	0/9
I58M D62F	nd / nd / nd	nd	0/9
T28Y S57W S63G	nd / nd / nd	nd	1/9 (2.82)
D30Y D31H Y32A	1.43 / 1.42 / 1.22	1.36	2/9 (4.47)
T28M I51Q K65W	nd / 4.42 / 4.74	4.58	5/9 (5.64)
H35R I51W Y60Q	nd / nd / 4.08	4.08	1/9 (4.18)
G26E G100D	4.94 / nd / nd	4.94	4/9 (4.78)
F27P Y60V S63M	nd / nd / 3.32	3.32	3/9 (4.26)
F27N S57G	nd / nd / nd	nd	1/9 (3.51)
W53F S57C F106C	2.67 / 2.81 / 3.31	2.93	3/9 (4.92)
T28C S57L V64T	3.03 / nd / nd	3.03	0/9
F27E W53V Y108F	nd / nd / nd	nd	1/9 (1.56)
F29P G56K	nd / nd / nd	nd	3/9 (4.15)
Y32A K65I	nd / nd / nd	nd	0/9
S63N Y105Q	3.09 / nd / 3.41	3.25	2/9 (4.47)
N54F V64E R101N	nd / nd / nd	nd	0/9
D31N S55G G104C	nd / nd / nd	nd	0/9
G56C K65T G102R	3.35 / nd / nd	3.35	2/9 (3.11)
M34F I51W W53G	nd / nd / nd	nd	0/9
D31T Y32K G102H	nd / nd / nd	nd	0/9
D31G G50C A61N	nd / nd / nd	nd	0/9
F27H T28I F29R	nd / nd / 4.82	4.82	0/9
Y32S M34Q G59T	nd / nd / nd	nd	0/9
A61V V99E	nd / nd / nd	nd	1/9 (2.95)
S55N V99N G102N	5.09 / nd / nd	5.09	1/9 (5.43)
Y32S N54E V64I	nd / nd / nd	nd	0/9
I51A S52Y G104L	nd / nd / nd	nd	0/9
I51K G56T V64G	nd / nd / nd	nd	0/9
M34F N54I G100Y	3.95 / nd / 4.52	4.24	1/9 (5.21)
H35C A61P	nd / nd / nd	nd	1/9 (3.44)
F27V A33R S63E	4.82 / 4.50 / nd	4.66	0/9
S55M F106T D107K	4.71 / nd / nd	4.71	1/9 (4.88)
G26R A61R V99L	nd / nd / nd	nd	1/9 (3.88)
S57C I58N Y108W	nd / nd / nd	nd	0/9
M34Y G56R G102N	3.87 / nd / nd	3.87	2/9 (3.56)
Y32M D107V	1.65 / 1.47 / 1.11	1.41	5/9 (5.32)
G59S Y60D K65Y	4.60 / 4.20 / nd	4.40	4/9 (4.68)
F27K W53D A61W	nd / 4.43 / 4.89	4.66	4/9 (4.95)

For reference, 4 entries of the list once more:

changes	log10 Kd, replicates	mean log10 Kd (nM)	signal with controls
M34F N54I G100Y	3.95 / nd / 4.52	4.24	1/9 (5.21)
G103S G104Y Y105V	nd / nd / nd	nd	0/9
F29T N54F V64L	nd / 4.51 / nd	4.51	2/9 (4.88)
I58M D62F	nd / nd / nd	nd	0/9